Results published in publication PMC12921483 (Frontiers in Pharmacology, 2026).

Test system: HeLa
Assay: CCK-8 antiproliferative assay, HeLa
Type: cell-based

Structure (SMILES)	anti-cervical cancer activity in words
O=C(/C=C/c1ccc(N2CCCC2)cc1)c1ccc(OC(F)(F)F)cc1 [Compound B7]	completely inactive
O=C(/C=C/c1ccc(N2CCCC2)cc1)c1cccc(OC(F)(F)F)c1 [Compound B6]	completely inactive
